In series [1] the target is T1, Neuronal acetylcholine receptor; alpha3/beta4 (Rattus norvegicus) (UniProt P04757+P12392). In words: Agonist activity at rat alpha3beta4 nAChR expressed in HEK293 cells assessed as increase in calcium flux by measuring increase in fluorescence intensity by FLIPR assay. In kind it is cell-based. The note with it: filed as agonist, dose 0.0001-100 µM. For orientation: Calcium flux is commonly read through the fluorescence of an indicator in the cells.

Chains of the proteins cited; added tags and fusions are not shown. Lines headed by an entry give the natural chain unless they say otherwise; changes in a name come on top.
UniProt P04757: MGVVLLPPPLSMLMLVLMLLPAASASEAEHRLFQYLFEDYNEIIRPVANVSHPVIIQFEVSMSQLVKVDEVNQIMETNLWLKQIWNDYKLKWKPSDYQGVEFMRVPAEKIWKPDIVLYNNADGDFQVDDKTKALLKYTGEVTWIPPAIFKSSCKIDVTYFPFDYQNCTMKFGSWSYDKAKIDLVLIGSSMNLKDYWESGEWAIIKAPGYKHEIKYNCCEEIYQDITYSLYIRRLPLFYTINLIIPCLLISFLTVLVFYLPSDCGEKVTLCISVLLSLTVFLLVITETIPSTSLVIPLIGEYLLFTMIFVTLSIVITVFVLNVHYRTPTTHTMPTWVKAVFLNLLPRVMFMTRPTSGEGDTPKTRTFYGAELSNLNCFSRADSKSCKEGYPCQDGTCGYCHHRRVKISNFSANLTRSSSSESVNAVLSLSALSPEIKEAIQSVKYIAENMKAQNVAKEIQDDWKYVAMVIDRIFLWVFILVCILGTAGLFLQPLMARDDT
UniProt P12392: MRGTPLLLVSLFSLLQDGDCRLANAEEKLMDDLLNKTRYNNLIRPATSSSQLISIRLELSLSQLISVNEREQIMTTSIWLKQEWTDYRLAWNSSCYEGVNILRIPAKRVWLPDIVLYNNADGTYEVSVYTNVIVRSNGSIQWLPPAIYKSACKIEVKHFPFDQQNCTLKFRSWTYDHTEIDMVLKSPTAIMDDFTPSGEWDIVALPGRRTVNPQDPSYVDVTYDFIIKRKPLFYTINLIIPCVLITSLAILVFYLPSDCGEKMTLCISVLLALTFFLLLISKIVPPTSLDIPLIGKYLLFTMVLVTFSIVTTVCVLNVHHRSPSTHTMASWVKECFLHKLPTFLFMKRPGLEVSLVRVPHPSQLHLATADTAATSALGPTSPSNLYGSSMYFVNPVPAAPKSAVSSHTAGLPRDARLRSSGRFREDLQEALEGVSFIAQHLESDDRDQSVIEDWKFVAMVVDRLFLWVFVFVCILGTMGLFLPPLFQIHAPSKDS
UniProt P35462, whole entry: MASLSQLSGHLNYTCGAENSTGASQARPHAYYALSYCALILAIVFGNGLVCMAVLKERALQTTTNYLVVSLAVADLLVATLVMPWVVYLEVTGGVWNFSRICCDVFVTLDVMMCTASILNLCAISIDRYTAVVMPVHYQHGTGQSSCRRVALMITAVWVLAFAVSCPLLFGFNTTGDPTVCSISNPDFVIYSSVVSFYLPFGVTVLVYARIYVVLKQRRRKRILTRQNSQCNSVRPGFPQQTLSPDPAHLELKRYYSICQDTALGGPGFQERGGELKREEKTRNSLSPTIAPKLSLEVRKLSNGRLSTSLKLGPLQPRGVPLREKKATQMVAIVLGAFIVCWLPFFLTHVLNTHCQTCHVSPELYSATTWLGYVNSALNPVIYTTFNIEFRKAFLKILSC
UniProt P08913, whole entry: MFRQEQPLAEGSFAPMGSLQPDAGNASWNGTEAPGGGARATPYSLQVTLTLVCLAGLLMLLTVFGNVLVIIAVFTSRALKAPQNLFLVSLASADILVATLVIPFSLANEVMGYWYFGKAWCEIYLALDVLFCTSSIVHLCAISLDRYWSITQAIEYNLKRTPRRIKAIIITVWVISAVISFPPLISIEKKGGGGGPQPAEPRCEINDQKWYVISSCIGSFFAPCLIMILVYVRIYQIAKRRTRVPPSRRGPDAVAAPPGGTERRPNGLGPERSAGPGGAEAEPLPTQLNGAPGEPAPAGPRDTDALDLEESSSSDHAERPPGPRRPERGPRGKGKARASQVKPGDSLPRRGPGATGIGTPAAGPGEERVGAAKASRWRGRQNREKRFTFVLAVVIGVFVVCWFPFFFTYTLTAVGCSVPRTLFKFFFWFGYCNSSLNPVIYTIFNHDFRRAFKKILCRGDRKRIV
UniProt P14416, whole entry: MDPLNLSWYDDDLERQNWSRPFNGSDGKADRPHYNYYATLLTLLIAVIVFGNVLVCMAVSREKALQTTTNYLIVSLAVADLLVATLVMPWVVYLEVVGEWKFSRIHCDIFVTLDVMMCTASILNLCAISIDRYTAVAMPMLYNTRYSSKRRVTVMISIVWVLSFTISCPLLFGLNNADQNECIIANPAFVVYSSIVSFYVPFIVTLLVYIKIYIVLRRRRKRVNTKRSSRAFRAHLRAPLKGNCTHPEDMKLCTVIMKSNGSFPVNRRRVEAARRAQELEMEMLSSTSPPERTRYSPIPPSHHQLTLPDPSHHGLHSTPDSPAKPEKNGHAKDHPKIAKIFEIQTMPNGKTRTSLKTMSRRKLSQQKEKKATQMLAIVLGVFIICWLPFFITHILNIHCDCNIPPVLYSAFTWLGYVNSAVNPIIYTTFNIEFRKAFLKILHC
UniProt P08172, whole entry: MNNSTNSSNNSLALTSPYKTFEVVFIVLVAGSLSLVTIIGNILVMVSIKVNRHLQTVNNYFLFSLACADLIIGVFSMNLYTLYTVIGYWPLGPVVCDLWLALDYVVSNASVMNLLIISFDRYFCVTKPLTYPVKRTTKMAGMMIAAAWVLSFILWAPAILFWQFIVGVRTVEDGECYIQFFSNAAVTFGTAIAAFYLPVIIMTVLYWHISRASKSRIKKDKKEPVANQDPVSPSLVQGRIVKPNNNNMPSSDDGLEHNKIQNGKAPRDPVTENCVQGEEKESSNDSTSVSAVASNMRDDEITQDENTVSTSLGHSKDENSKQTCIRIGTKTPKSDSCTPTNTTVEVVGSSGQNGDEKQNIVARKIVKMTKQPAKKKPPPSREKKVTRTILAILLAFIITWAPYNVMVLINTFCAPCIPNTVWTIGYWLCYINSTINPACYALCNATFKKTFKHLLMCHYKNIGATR
UniProt P21917, whole entry: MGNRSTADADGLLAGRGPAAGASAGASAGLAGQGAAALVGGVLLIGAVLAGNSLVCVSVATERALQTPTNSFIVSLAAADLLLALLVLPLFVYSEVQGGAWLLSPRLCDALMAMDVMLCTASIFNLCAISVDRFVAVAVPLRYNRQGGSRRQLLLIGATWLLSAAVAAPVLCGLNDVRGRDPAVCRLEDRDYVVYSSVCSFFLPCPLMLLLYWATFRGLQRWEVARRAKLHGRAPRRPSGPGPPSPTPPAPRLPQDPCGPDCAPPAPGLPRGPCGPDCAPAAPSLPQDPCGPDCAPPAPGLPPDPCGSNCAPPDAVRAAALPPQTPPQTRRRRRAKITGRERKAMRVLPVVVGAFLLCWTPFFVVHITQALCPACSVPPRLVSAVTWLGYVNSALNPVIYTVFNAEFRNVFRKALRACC
UniProt P08173, whole entry: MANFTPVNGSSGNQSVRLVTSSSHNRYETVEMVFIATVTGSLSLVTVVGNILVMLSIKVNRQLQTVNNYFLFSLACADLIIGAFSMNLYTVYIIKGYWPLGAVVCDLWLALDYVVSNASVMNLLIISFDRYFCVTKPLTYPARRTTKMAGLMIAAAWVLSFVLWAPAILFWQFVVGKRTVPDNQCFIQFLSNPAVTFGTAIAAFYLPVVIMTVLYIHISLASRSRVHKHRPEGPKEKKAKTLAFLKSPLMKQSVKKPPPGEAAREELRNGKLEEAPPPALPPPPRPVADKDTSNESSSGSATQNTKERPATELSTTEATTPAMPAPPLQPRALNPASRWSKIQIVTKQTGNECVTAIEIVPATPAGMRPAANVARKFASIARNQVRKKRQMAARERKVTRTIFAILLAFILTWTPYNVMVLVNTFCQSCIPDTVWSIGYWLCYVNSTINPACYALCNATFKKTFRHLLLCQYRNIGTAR
UniProt P18825, whole entry: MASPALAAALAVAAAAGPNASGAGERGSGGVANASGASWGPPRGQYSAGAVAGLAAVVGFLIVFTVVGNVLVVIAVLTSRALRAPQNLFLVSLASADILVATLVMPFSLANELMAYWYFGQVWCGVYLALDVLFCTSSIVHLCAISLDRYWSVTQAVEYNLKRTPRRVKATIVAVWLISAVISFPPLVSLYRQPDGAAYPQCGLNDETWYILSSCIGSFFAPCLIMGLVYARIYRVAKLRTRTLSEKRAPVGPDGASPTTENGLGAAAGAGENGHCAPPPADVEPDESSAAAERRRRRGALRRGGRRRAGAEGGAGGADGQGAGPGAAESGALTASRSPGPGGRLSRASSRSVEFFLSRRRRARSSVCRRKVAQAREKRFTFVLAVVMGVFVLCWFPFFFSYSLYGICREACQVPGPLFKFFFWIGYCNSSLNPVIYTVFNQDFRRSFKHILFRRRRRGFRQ

Series [2] deals with T1, Neuronal acetylcholine receptor; alpha3/beta4 (Rattus norvegicus). In words: Partial agonist activity at rat alpha3beta4 nAChR expressed in HEK293 cells assessed as increase in calcium flux by measuring increase in fluorescence intensity by FLIPR assay. Format: cell-based. The note with it: filed as partial agonist, dose 0.0001-100 µM.
For series [3], the target named is D(3) dopamine receptor (Homo sapiens) (UniProt P35462). Conditions: dose 10.0 µM.
Series [4] deals with Alpha-2A adrenergic receptor (Homo sapiens) (UniProt P08913). Conditions: dose 10.0 µM.
Series [5] concerns the target D(2) dopamine receptor (Homo sapiens) (UniProt P14416). Conditions: dose 10.0 µM.
Series [6] addresses Muscarinic acetylcholine receptor M2 (Homo sapiens) (UniProt P08172). The note with it: dose 10.0 µM.
Series [7] has as its target D(4) dopamine receptor (Homo sapiens) (UniProt P21917). Conditions: dose 10.0 µM.
For series [8], the target named is Muscarinic acetylcholine receptor M4 (Homo sapiens) (UniProt P08173). Conditions: dose 10.0 µM.
The target in series [9] is Alpha-2C adrenergic receptor (Homo sapiens) (UniProt P18825). Conditions: dose 10.0 µM.
The format of series [10] is ADME, organism-based, Sprague-Dawley. The note with it: rat, in vivo, ip, 10 mg/kg, 24 h.
The format of series [11] is ADME, organism-based, Sprague-Dawley. The note with it: rat, in vivo, ip, 10 mg/kg, 10 min.
The format of series [12] is ADME, organism-based, Sprague-Dawley. The note with it: rat, in vivo, ip, 10 mg/kg, 24 h. The source holds these as a separate data set.

Active and inactive are the calls of the source. The rule behind the calls is not given here.

`Cc1cc([C@H]2C[C@@H]3CC[C@H]2N3)on1`: the outcome in series [1] was Active.
For `CN1[C@@H]2CCC[C@H]1C[C@@H](Nc1ccccc1Br)C2`, the result in [2] was Active.
Take `CC1=CC[C@@H]2C[C@H]1[C@H](c1cc(F)cc(F)c1)NC2(C)C`: the Activity in series [3], in series [4], in [5], in series [6], in series [7] and in series [8] was under 50% throughout. In [9], this compound returned an Activity of under 50%.
As to `CC1=CC[C@@H]2C[C@H]1[C@H](c1ccnc3ccccc13)NC2(C)C`, the AUC (usually concentration integrated over time) in [10] is 602.4 ng·h/mL. In addition, in [11], the Cmax (in general, the maximum level reached in the sampled fluid or tissue) turned out to be 723.3 ng/mL. Besides, the “beta t1/2” value in series [12] was found to be 1.7 h.

(Values after ChEMBL document CHEMBL5532674 (2024).)
